This data set can be described thus: Solubility of dosing solutions in 5% dextrose in water. Type of data set: physicochemical. To be noted: 5% dextrose in water (D5W).

Experimental findings from patent publication US8877715B2, “Cytotoxic conjugates having neuropeptide Y receptor binding compound” (priority 2009, dated 2014) are described below.

For the substance “[camptothecin-rvD-Asp-Suc-Tyr^1, Nle^17, 4Hyp^34]hNPY(1-36)-NH2 [Example 92]”, the “solubility of dosing solution” value was “poor solubility”.
